# scFv variants of Ab-14 (heavy chain) against a SARS-CoV-2 spike peptide

Data: MIT Lincoln Laboratory AlphaSeq set, Li et al. 2023, doi:10.1038/s41467-023-39022-2, as distributed in FLAb.

Binding partner: SARS-CoV-2 spike HR2 peptide, sequence PDVDLGDISGINAS.

Parent scFv Ab-14: VH joined to VL by the linker GGGGSGGGGSGGGGS. Changes lie in the heavy chain CDRs alone.
VH: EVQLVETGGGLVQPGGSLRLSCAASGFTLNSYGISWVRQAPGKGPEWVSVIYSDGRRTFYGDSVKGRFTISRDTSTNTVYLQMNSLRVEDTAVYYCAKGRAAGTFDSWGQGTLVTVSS
VL: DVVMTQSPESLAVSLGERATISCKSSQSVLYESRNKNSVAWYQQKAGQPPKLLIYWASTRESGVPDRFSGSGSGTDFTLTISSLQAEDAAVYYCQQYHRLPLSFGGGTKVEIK

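This is the validation round: designs drawn from the data on random variants, tested in the same kind of assay. Their group label is 14H_En_Gen (En: ensemble of fine-tuned language models; Gen: genetic algorithm). In AlphaSeq, yeast of one mating type display the scFv and yeast of the other type display the target. After mating in shaken culture at 30 °C for 16 h, diploids were selected and their barcode pairs sequenced. Scores were corrected for input abundance and mapped to Kd with protein pairs of known affinity run in the same pool. The assay was run in six technical replicates.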

Each variant is given by its three heavy chain CDRs, as the data file delimits them; those of the parent are GFTLNSYGIS, VIYSDGRRTFYGDSVK, GRAAGTFDS.
Affinities are written as log10 Kd with Kd in nM; a lower number is a better binder.
"nd" marks a missing value. The strain was present, yet no cells mated with the target were sequenced in that replicate, which points to weak or no binding.

CDR-H1	CDR-H2	CDR-H3	log10 Kd, replicates	control signals
GFDLNEYGIS	VIYADGRRTAYADSVK	GENAGTFDQ	-0.62 / 0.14 / -0.86 / -1.17 / -0.16 / -0.62	1/18 (-0.32)
GFDLNEYGIS	VIYADGVRKAYADDVK	GENAGTFDV	-0.39 / -1.28 / -1.13 / -0.90 / -0.83 / -0.95	0/18
GFDLNEYGIS	VIYADGLRTVYADSVK	GENAGTFDV	0.24 / -0.39 / -0.41 / -0.44 / -0.09 / -0.49	0/18
GFDLDEYGIS	VIYADGQRTAYADSVK	GEVAGTFDA	-0.53 / -0.71 / -0.29 / -0.93 / -0.36 / 0.86	0/18
GFDLDEYGIS	VIYADGSRTAYADDVK	GNNAGTFDV	nd / nd / nd / nd / nd / nd	0/18
GFDLNEYGIS	VIYADGVRTAYADSVK	GETAGTFDV	0.36 / 0.15 / nd / -0.37 / -0.91 / -0.45	0/18
GFDLDEYGIS	VIYADGRRTFYADSVK	GNNAGTFDV	0.03 / -0.15 / -0.44 / -0.54 / -0.55 / -0.54	1/18 (2.83)
GFDLNEYGIS	VIYADGKRTAYADSVK	GNVAGTFDL	-0.60 / -0.82 / -0.69 / -0.74 / -0.82 / -0.77	0/18
GFDLEDYGIS	VIYADGMRTAYADDVK	GNVAGTFDV	-0.25 / -0.11 / -0.23 / -0.19 / -0.15 / -0.11	0/18
GFDLNEYGIS	VIYADGVRTFYADSVK	GQNAGTFDI	-0.23 / -0.16 / -0.09 / -0.40 / -0.28 / -0.22	0/18
GFNLDEYGIS	VIYADGVRTAYADSVK	GENAGTFDV	1.05 / 0.47 / 1.10 / -0.07 / 0.52 / 0.45	0/18
GFDLNEYGIS	VIYADGQRTAYADDVK	GEVAGTFDV	-0.51 / -0.44 / -0.52 / -0.83 / -0.55 / -0.26	1/18 (2.77)
GFDLNEYGIS	VIYADGRRTAYADKVK	GNNAGTFDV	1.04 / 0.26 / 0.69 / 0.02 / nd / 0.13	0/18
GFDLNEYGIS	VIYADGMRTAYADSVK	GGNAGTFDL	0.05 / -0.20 / -0.51 / -0.50 / -0.57 / -0.22	1/18 (1.81)
GFDLNEYGIS	VIYADGMRTAYVDSVK	GETAGTFDL	-0.12 / -0.08 / 0.09 / 0.24 / -0.15 / -0.01	0/18
GFDLNEYGIS	VIYADGRRTFYADSVK	GNVAGTFDT	-0.34 / -0.42 / -0.49 / -0.60 / -0.60 / -0.17	1/18 (1.72)
GFDLNEYGIS	VIYADGKRTAYADSVK	GANAGTFDV	-0.47 / -0.26 / -0.61 / -0.94 / -0.58 / -0.22	0/18
GFDLDEYGIS	VIYADGMRTAYSDNVK	GQVAGTFDV	-0.26 / -0.48 / -0.49 / -0.62 / -0.37 / -0.38	0/18
GFDLNEYGIS	VIYADGQRTAYADSVK	GNTAGTFDV	-0.24 / -0.15 / -0.51 / -0.66 / -0.14 / -0.15	0/18
GFDLNEYGIS	VIYADGMRTFYSDSVK	GNNAGTFDV	-0.12 / -0.54 / -0.14 / -0.58 / -0.44 / -0.24	0/18
GFDLNEYGIS	VIYADGMRTAYQDSVK	GTNAGTFDV	-0.03 / -0.48 / -0.59 / -0.17 / -0.04 / 0.46	3/18 (2.22)
GFDLDEYGIS	VIYADGQRTAYTDSVK	GNTAGTFDV	nd / 2.05 / 2.35 / 1.40 / 1.47 / 1.33	0/18
GFDLDEYGIS	VIYADGVRTAYADNVK	GENAGTFDV	-0.65 / -0.63 / -0.47 / -1.08 / -0.47 / -0.48	0/18
GFDLNEYGIS	VIYADGKRTAYTDSVK	GNEAGTFDV	-0.46 / -0.50 / -0.80 / -0.81 / -0.85 / -0.63	0/18
GFDLNEYGIS	VIYADGQRTAYADSVK	GANAGTFDM	-0.89 / -1.14 / -0.59 / -0.96 / -1.23 / -0.93	1/18 (2.39)
GFDLNEYGIS	VIYADGMRTSYADSVK	GNNAGTFDV	0.55 / 0.04 / -0.16 / -0.47 / -0.46 / -0.44	1/18 (3.18)
GFDLNEYGIS	VIYADGVRTVYADSVK	GNVAGTFDT	-0.38 / -0.63 / -0.71 / -0.60 / -0.60 / -0.37	0/18
GFDLNEYGIS	VIYADGVRTAYSDSVK	GGNAGTFDL	-0.30 / -0.44 / -0.84 / -0.41 / -0.70 / -0.08	1/18 (1.33)
GFDLDEYGIS	VIYADGVRTAYSDSVK	GEVAGTFDT	0.36 / 0.39 / 0.15 / 0.67 / -0.01 / 0.27	0/18
GFDLDEYGIS	VIYADGVRTAYADSVK	GNNAGTFDI	-0.36 / 0.16 / -0.30 / -0.44 / 0.14 / 0.26	0/18
GFDLNEYGIS	VIYADGMRTAYADSVK	GHNAGTFDV	0.40 / 0.01 / -0.05 / 0.17 / -0.07 / 0.08	0/18
GFDLDEYGIS	VIYADGMRTAYANDVK	GEVAGTFDL	-0.38 / -0.42 / -1.01 / 0.08 / -0.91 / -0.24	0/18
GFDLNEYGIS	VIYADGMRTAYADDVK	GNHAGTFDI	-0.43 / -0.34 / 0.13 / -0.73 / -0.48 / -0.37	0/18
GFDLNEYGIS	VIYADGMRTAYSDSVK	GKNAGTFDV	0.45 / 0.63 / -0.12 / -0.20 / -0.08 / 0.21	1/18 (1.03)
GFDLNEYGIS	VIYADGQRTAYSDSVK	GNNAGTFDI	0.69 / -0.55 / -0.38 / -0.31 / 0.76 / -0.49	0/18
GFDLDEYGIS	VIYADGMRTAYADSVK	GTNAGTFDI	-0.29 / -0.30 / -0.33 / -0.58 / -0.48 / -0.46	0/18

A selection of 5 entries from above:

CDR-H1	CDR-H2	CDR-H3	log10 Kd, replicates	control signals
GFNLDEYGIS	VIYADGVRTAYADSVK	GENAGTFDV	1.05 / 0.47 / 1.10 / -0.07 / 0.52 / 0.45	0/18
GFDLEDYGIS	VIYADGMRTAYADDVK	GNVAGTFDV	-0.25 / -0.11 / -0.23 / -0.19 / -0.15 / -0.11	0/18
GFDLNEYGIS	VIYADGQRTAYSDSVK	GNNAGTFDI	0.69 / -0.55 / -0.38 / -0.31 / 0.76 / -0.49	0/18
GFDLDEYGIS	VIYADGVRTAYSDSVK	GEVAGTFDT	0.36 / 0.39 / 0.15 / 0.67 / -0.01 / 0.27	0/18
GFDLNEYGIS	VIYADGKRTAYTDSVK	GNEAGTFDV	-0.46 / -0.50 / -0.80 / -0.81 / -0.85 / -0.63	0/18

The range of this assay differs from that of the first round, and the authors advise against merging the two.
Nonspecific signal, from three strains lacking the peptide, appeared in 1% of pairings of all heavy chain designs, centred on 2.08 (5% of these signals below 0.84); values are not corrected for it. The control count says in how many pairings with the empty strains this scFv gave a signal, with their mean in brackets.
The authors averaged sequences with at least three values out of six and counted those with two or fewer as poor binders.